Reference: US20070160574A1, “Design of CXC chemokine analogs for the treatment of human diseases” (priority 2000, published 2007)

How the values were obtained:
[1] = target: T1, CXCR3 receptor (CXCR-3/300-19 cells) (Homo sapiens, UniProt P49682); test: [Ca2+]i mobilization by IP-10 analogs, FLIPR Calcium 3 kit, CXCR-3/300-19 cells; type: cell-based; settings: for calcium mobilization activity of the cells: CXCR-3/300-19 cells
T1 construct: expressed in transfected cells; host or cells: 300-19 mouse pre-B lymphocytes (CXCR-3/300-19)
T1 sequence (P49682 1-368): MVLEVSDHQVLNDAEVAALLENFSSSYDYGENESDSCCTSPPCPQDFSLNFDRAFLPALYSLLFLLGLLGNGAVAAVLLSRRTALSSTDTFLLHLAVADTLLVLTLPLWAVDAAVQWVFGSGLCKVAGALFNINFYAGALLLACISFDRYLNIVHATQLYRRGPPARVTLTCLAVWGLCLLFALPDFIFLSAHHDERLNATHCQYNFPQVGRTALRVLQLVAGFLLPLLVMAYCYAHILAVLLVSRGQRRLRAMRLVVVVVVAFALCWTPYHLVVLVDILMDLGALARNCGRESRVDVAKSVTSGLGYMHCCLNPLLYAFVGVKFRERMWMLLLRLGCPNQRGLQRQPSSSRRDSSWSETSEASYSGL
Description: Binding and Calcium Mobilization: Suspensions of CXCR-3/300-19 cells were used to assess binding and intracellular calcium mobilization induced by IP-10 analogs. These are mouse pre-B lymphocytes transfected with the CXCR3 receptor, (Moser, et al). The cells were washed in RPMI media and resuspended in RPMI media supplemented with 10% FCS, then plated at 1.2×10^5 cells per well of 96-well black wall/clear bottom plates coated with poly-D-lysine (Becton Dickinson) and loaded with 100 uL fluorescent calcium indicator FLIPR Calcium 3 assay kit component A (Molecular Probes) for 1 hr at 37° C. The cells on the plates were then spun at 1000 rpm for 15 minutes at room temperature.
Each of the sequences successfully bound to the cellular receptors. The intracellular calcium mobilization in response to 25 uL (0-100000 nM final concentrations) of the appropriate and various concentrations of analogue was measured at 37° C. by monitoring fluorescence as a function of time in all the wells using the Flexstation Fluorometric Imaging Plate Reader (Molecular Devices). All analogues were run simultaneously with rhIP-10 (R&D Systems) as the standard. Table 7 provides the dosage effect of the binding of each of the IP-10 analogs on the calcium mobilization activity of the cells.

[2] = tested on: circulating neutrophils in Balb/c mice; test: Circulating neutrophil counts after IL-8 mimetic in Balb/c mice; type: in vivo, mouse; settings: subcutaneous 1-25 mg/kg, female Balb/c mice, 30 minutes to 24 hours, FIGS. 5-6
Description: (§1) The experiments consisted of the following groups of female Balb/c mice (Charles River Lab's): (1) an untreated control group of 10 mice; and (2) test groups of 10 mice each.
The control and test groups of 20-23 g mice were randomly grouped in appropriately labeled cages and identified by cage markings and ear punch. The test groups were tested one time subcutaneously with the test analog at doses of 1, 5, 10, 15, 20, or 25 mg/kg in volumes of approximately 200 μl. The mice were anesthetized immediately before blood collection. Blood samples were obtained from the mice at 30 minutes, 1 hour, 4 hours, 6 hours, 24 hours and/or 48 hours after administration of the test mimetic. Blood was collected with an EDTA S-Monovette syringe (Sarstedt) and 25 G needle through a cardiac puncture. Blood was mixed gently by 5 inversions then expelled into a microcentrifuge tube. Differential and CBC analyses were performed on a Hemavet 850 FS (Drew Scientific). […]
The test mimetic was administered by subcutaneous injection into female Balb/c mice in amounts of 1, 5, 10, 15, 20, or 25 mg/kg. […] Complete blood counts and differentials were determined using a Hemavet. […]
FIG. 6 describes the kinetics of the rise in circulating neutrophil counts in response to the administration of the test mimetic according to some embodiments. […] Complete blood counts and differentials were determined using a Hemavet®. […]

[3] = tested on: IL-8 receptor (differentiated HL-60 cells); test: Calcium mobilization in differentiated HL-60 cells, Fluo-4/AM; type: cell-based; settings: over control wells (plain medium = 1.0), about 10 to 200 μg/ml, listed as 1647
In short: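 HL-60 cells loaded with 4 μM Fluo-4/AM for 45 min at 37° C, then read in Tyrode's salt solution (1 mM CaCl2) by fluorescence plate reader. Values are fluorescence normalized to plain medium as 1.0, native chemokine as control; mean of at least duplicate wells.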

[4] = tested on: haematopoietic progenitor/stem cells in Balb/c mice; test: Circulating haematopoietic progenitor/stem cells (CFU) after IL-8 mimetic in Balb/c mice; type: in vivo, mouse; settings: subcutaneous 1-25 mg/kg, female Balb/c mice, 30 minutes to 48 hours, FIGS. 7-8
Description: as §1
The control and test groups of 20-23 g mice were randomly grouped in appropriately labeled cages and identified by cage markings and ear punch. The test groups were tested one time subcutaneously with the test analog at doses of 1, 5, 10, 15, 20, or 25 mg/kg in volumes of approximately 200 μl. The mice were anesthetized immediately before blood collection. Blood samples were obtained from the mice at 30 minutes, 1 hour, 4 hours, 6 hours, 24 hours and/or 48 hours after administration of the test mimetic. […]
The number of haematopoietic progenitor/stem cells was determined as follows. The volume of blood in each microfuge tube was determined and nine times the volume of ammonium chloride was added. […] The number of nucleated cells per mL of blood was counted, and all cells were plated in duplicate in standard methylcellulose to determine the number of CFUs including the colony-forming unit granulocyte-macrophage (CFU-GM), the burst-forming unit erythroid (BFU-E), and the colony-forming unit granulocyte erythrocyte macrophage megakaryocyte (CFU-GEMM). […] The total CFU per mL of blood from the individual mice was determined. […]

SMILES | effect on intracellular calcium mobilization (in words) ([1]; FIG. 1, 100 μM, comparison between analogs) | calcium mobilization activity of the cells ([1]; dosage 1.2 μM) [%] | calcium mobilization activity of the cells ([1]; dosage 3.7 μM) [%] | calcium mobilization activity of the cells ([1]; dosage 11.1 μM) [%] | calcium mobilization activity of the cells ([1]; dosage 33.3 μM) [%] | calcium mobilization activity of the cells ([1]; dosage 100 μM) [%] | circulating neutrophils (in words) [2] | Average fold increase in calcium mobilization [3] | circulating haematopoietic progenitor/stem cells (CFU) (in words) [4]
CC[C@H](C)[C@H](NC(=O)[C@H](CS)NC(=O)[C@H](CCC(N)=O)NC(=O)[C@H](CS)NC(=O)[C@H](CCCNC(=N)N)NC(=O)[C@H](CC(C)C)NC(=O)[C@H](CCC(=O)O)NC(=O)[C@H](CCCCN)NC(=O)[C@H](C)NC(=O)[C@@H](N)CO)C(=O)N[C@@H](CCCCN)C(=O)N[C@H](C(=O)N[C@@H](Cc1ccc(O)cc1)C(=O)N[C@@H](CO)C(=O)N[C@@H](CCCCN)C(=O)NCC(=O)NCC(=O)NCC(=O)NCC(=O)N[C@@H](CC(N)=O)C(=O)N[C@@H](Cc1c[nH]c2ccccc12)C(=O)N[C@H](C(=O)N[C@@H](CCC(N)=O)C(=O)N[C@@H](CCCNC(=N)N)C(=O)N[C@H](C(=O)N[C@H](C(=O)N[C@@H](CCC(=O)O)C(=O)N[C@@H](CCCCN)C(=O)N[C@@H](Cc1ccccc1)C(=O)N[C@@H](CC(C)C)C(=O)N[C@@H](CCCCN)C(=O)N[C@@H](CCCNC(=N)N)C(=O)N[C@@H](C)C(=O)N[C@@H](CCC(=O)O)C(=O)N[C@@H](CC(N)=O)C(N)=O)C(C)C)C(C)C)C(C)C)[C@@H](C)O [SEQ ID NO:1645] | decreased the effect on calcium mobilization dramatically | 17.4 | 15.4 | 12.5 | 13.3 | 3.4 |  |  | 
CC[C@H](C)[C@H](NC(=O)[C@H](Cc1ccccc1)NC(=O)[C@H](CCC(N)=O)NC(=O)[C@H](C)NC(=O)[C@H](CCCNC(=N)N)NC(=O)[C@H](CC(C)C)NC(=O)[C@H](CCC(=O)O)NC(=O)[C@H](CCCCN)NC(=O)[C@H](C)NC(=O)[C@@H](N)CO)C(=O)N[C@@H](CCCCN)C(=O)N[C@H](C(=O)N[C@@H](Cc1ccc(O)cc1)C(=O)N[C@@H](CO)C(=O)N[C@@H](CCCCN)C(=O)NCCCCCCCCCCC(=O)N[C@@H](CC(N)=O)C(=O)N[C@@H](Cc1c[nH]c2ccccc12)C(=O)N[C@H](C(=O)N[C@@H](CCC(N)=O)C(=O)N[C@@H](CCCNC(=N)N)C(=O)N[C@H](C(=O)N[C@H](C(=O)N[C@@H](CCC(=O)O)C(=O)N[C@@H](CCCCN)C(=O)N[C@@H](Cc1ccccc1)C(=O)N[C@@H](CC(C)C)C(=O)N[C@@H](CCCCN)C(=O)N[C@@H](CCCNC(=N)N)C(=O)N[C@@H](C)C(=O)N[C@@H](CCC(=O)O)C(=O)N[C@@H](CC(N)=O)C(N)=O)C(C)C)C(C)C)C(C)C)[C@@H](C)O [SEQ ID NO:1647] |  |  |  |  |  |  | increasing the number | 57.3 | increasing the number
